Source: PubChem BioAssay (Broad Institute)
CDK5 inh: CDK5/p35 (human) kinase inhibition; Q00535+Q15078; Recombinant CDK5/p35, ADP-Glo luminescence, 60 min; inhibition, % at 10 µM; 330,000 compounds, 0.01% hits;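 active = highest replicate inhibition of at least 50% and at least 75% of replicates reaching 50%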;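 also: plate controls were DMSO neutral control for no effect and GW8510 at 10 µM for full effect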
CAL PDZ FP-1: blocks peptide binding to the human CAL PDZ domain. inhibition, % at 24.9 µM. purified CAL PDZ, TMR-peptide fluorescence polarization, 1 h. 300,000 compounds, 0.92% hits. AID 602252;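 active = mean inhibition of at least 30% with at least half of replicates also reaching 30%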;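 also: 0% = DMSO neutral control and 100% = excess unlabeled competitor peptide PRC23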
Dyrk1A ADPGlo: inhibitors of rat Dyrk1A kinase. ADP-Glo luminescence, NFATc1 peptide. inhibition, % at 12.5 µM. 310,000 compounds, 0.43% hits. Q63470; in the data active = inhibition above about 50%;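 also: plate controls were vehicle with enzyme for no effect and no enzyme for full effect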
dFosB activator: mouse delta FosB homodimer activation. 340,000 compounds, 0.99% hits. P13346. activation, % at 25 µM. purified delta FosB, TAMRA-CDK5 oligo fluorescence polarization; percent of positive-control signal above neutral wells;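 active = mean activation above about 17%, with every replicate also reaching it, limit read from the data, passing the limit was not always enough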
CAL PDZ FP-2: human CAL PDZ-peptide interaction inhibition | 330,000 compounds, 0.02% hits | AID 504414 | inhibition, % at 20 µM | Q9HD26 | purified CAL PDZ, TMR-peptide fluorescence polarization, 1 h;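 active = highest replicate inhibition of at least 40%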;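 also: plate controls were DMSO neutral control wells for no effect and unlabeled competitor peptide control wells for full effect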
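Assay system – tagged CAL PDZ protein CerCALP, purified · Timing – 1 h at RT · Compound – single point, 20 µM · Measured by – fluorescence polarization from S- and P-plane intensities, G-factor corrected · Evaluation – inhibition from polarization loss · Probe or stimulus – TMR reporter peptide T*-PRC34 · Buffer or medium – pH 7.4 phosphate-saline buffer, reducing agent, detergent, IgG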
UUG fidelity: alters start codon recognition fidelity in yeast | S. cerevisiae UUG-firefly luciferase reporter, luminescence/redox ratio | activity score, % at 18.7 µM | 350,000 compounds, 0.13% hits | AID 602363;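 active = replicate mean at a twofold rise or more, about +100% in these data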;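 note: firefly luciferase made from a UUG start codon reports start codon fidelity; reporter light over untreated wells divided by growth signal over untreated wells; some hits fall short of that in this replicate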
The depositor's hits bear a star; nt = no result given. In the library only some 1.7% were active in any assay of this set; here they are far more common.

(1) COc1ccc(C(=O)C[n+]2cccc(Br)c2)cc1
(2) O=C(C[n+]1cccc(Br)c1)c1ccccc1
(3) CCC(=O)N[C@H]1CC[C@H](CC(=O)NCc2ccccc2OC)O[C@@H]1CO
(4) COC(=O)Cn1cnc2c(cnn2-c2ccccc2)c1=O
(5) Cc1cccc(NC(=O)Cn2cnc3c(cnn3-c3ccc(F)cc3)c2=O)c1C

compound no.	1	2	3	4	5
CAL PDZ FP-2	0.0	2.5	nt	-2.2	-2.6
CDK5 inh	0.4	-0.4	nt	1.2	-0.1
UUG fidelity	nt	-27.9	-14.7	nt	-9.8
dFosB activator	5.0	2.0	nt	-4.3	48.5*
CAL PDZ FP-1	32.0*	-7.7	nt	-0.7	-5.9
Dyrk1A ADPGlo	nt	1.7	nt	-1.0	2.7

(6) CCOc1ncccc1C(=O)OCC(=O)N(CC(C)C)C1CCS(=O)(=O)C1 (configuration not stated)
(7) CN(Cc1ccc(Br)cc1)C(=O)CCN1C(=O)c2cccc([N+](=O)[O-])c2C1=O
(8) Cc1noc(C)c1NC(=O)N[C@@H]1CC[C@H](CC(=O)N2CCCCC2)O[C@H]1CO
(9) CCOc1ccc(NC(=O)CN(C)S(=O)(=O)c2cccs2)cc1
(10) O=C(NCc1ccccc1F)c1ccc2c(c1)OCO2

compound no.	6	7	8	9	10
CAL PDZ FP-2	-0.2	0.6	nt	-0.6	-1.3
CDK5 inh	-1.1	2.5	nt	-0.5	-1.1
UUG fidelity	-4.8	-6.9	-12.3	19.0	-13.9
dFosB activator	1.9	-6.0	nt	-1.5	2.2
CAL PDZ FP-1	56.6*	70.7*	nt	59.2*	2.9
Dyrk1A ADPGlo	2.4	1.9	nt	2.6	-1.6

Part of the list above, bar-delimited.
no. | Structure | CAL PDZ FP-2 | CDK5 inh | UUG fidelity | dFosB activator | CAL PDZ FP-1 | Dyrk1A ADPGlo
6 | CCOc1ncccc1C(=O)OCC(=O)N(CC(C)C)C1CCS(=O)(=O)C1 (configuration not stated) | -0.2 | -1.1 | -4.8 | 1.9 | 56.6* | 2.4
7 | CN(Cc1ccc(Br)cc1)C(=O)CCN1C(=O)c2cccc([N+](=O)[O-])c2C1=O | 0.6 | 2.5 | -6.9 | -6.0 | 70.7* | 1.9
8 | Cc1noc(C)c1NC(=O)N[C@@H]1CC[C@H](CC(=O)N2CCCCC2)O[C@H]1CO | nt | nt | -12.3 | nt | nt | nt
9 | CCOc1ccc(NC(=O)CN(C)S(=O)(=O)c2cccs2)cc1 | -0.6 | -0.5 | 19.0 | -1.5 | 59.2* | 2.6

(next part)
(11) O=C(NCCc1ccccc1F)c1ccc2c(c1)OCCO2
(12) Cc1c(C(=O)C(=O)NCCCn2ccnc2)c2ccccc2n1C
(13) CSc1ccccc1C(=O)NCCCn1ccnc1
(14) CCSc1ccccc1C(=O)NCCCn1ccnc1
(15) Cc1[nH]c2ccccc2c1C(=O)C(=O)NCCCn1ccnc1

compound no.	11	12	13	14	15
CAL PDZ FP-2	-0.7	-1.4	16.6	-0.6	0.1
CDK5 inh	1.1	-0.4	0.5	-0.7	0.5
UUG fidelity	-92.3	nt	-6.8	-22.7	nt
dFosB activator	-4.1	-2.1	2.7	8.1	-1.1
CAL PDZ FP-1	47.0*	35.6*	61.2*	-2.8	-4.7
Dyrk1A ADPGlo	2.5	nt	3.5	2.9	nt

(16) CC1=CC(C)(C)Nc2ccc(OC(=O)C(Cc3ccccc3)N3C(=O)c4ccccc4C3=O)cc21 (configuration not stated)
(17) CC1=CC(C)(C)Nc2ccc(OC(=O)CN3C(=O)c4ccccc4C3=O)cc21
(18) CC(=O)NC1C(OCc2ccccc2)OC(CO)C(OC(C)=O)C1OC(C)=O (configuration not stated)
(19) CC(C)C1CC(=O)NC(SCC(=O)Nc2ccc(Br)cc2)=C1C#N (configuration not stated)
(20) COc1ccccc1C1CC(=O)NC(SCC(=O)Nc2ccccc2)=C1C#N (configuration not stated)

compound no.	16	17	18	19	20
CAL PDZ FP-2	-1.3	0.0	0.7	0.1	-1.3
CDK5 inh	0.4	-1.2	0.2	-1.9	-0.9
UUG fidelity	-10.7	nt	-8.9	3.1	-17.5
dFosB activator	-5.5	-0.7	-4.7	-8.7	2.2
CAL PDZ FP-1	67.9*	-4.6	45.9*	57.4*	nt
Dyrk1A ADPGlo	-3.2	-3.1	-1.5	-6.8	2.5

(21) C[C@@H]1CN([C@H](C)CO)C(=O)Cc2cc(NC(=O)C3CC3)ccc2O[C@H]1CN(C)Cc1ccccc1
(22) Cc1cc2ncc(S(C)(=O)=O)c(N)n2n1
(23) COc1ccc(NC(=O)Oc2cc(C)ccc2C(C)C)cc1
(24) COC(=O)[C@H](CC(C)C)N1Cc2cc(OC)cc(OC)c2-c2ccccc2S1(=O)=O
(25) Cc1ccc(S(=O)(=O)Nc2ccc3c(c2)C(=O)N([C@H](C)CO)C[C@@H](C)[C@@H](CN(C)C)O3)cc1

compound no.	21	22	23	24	25
CAL PDZ FP-2	nt	-1.0	-0.9	-0.3	nt
CDK5 inh	nt	0.1	-1.2	0.3	nt
UUG fidelity	-8.7	nt	4.6	-13.4	-9.4
dFosB activator	nt	-7.3	-7.5	-11.3	nt
CAL PDZ FP-1	nt	55.6*	88.6*	51.1*	nt
Dyrk1A ADPGlo	nt	nt	-3.7	4.1	nt

(26) OCCN1CCN(c2ncnc3c2sc2nc(N4CCOCC4)c4c(c23)CCC4)CC1
(27) OCCN(CCO)c1ncnc2c1sc1nc(N3CCOCC3)c3c(c12)CCCC3
(28) CCc1ccc(/C=C(\Cl)c2nc3cc(Cl)ccc3c(=O)[nH]2)cc1
(29) O=c1[nH]c(/C(Cl)=C/c2cccc(F)c2)nc2cc(C(F)(F)F)ccc12
(30) Cc1nn(C)c(C(=O)Sc2cccc(Cl)c2)c1[N+](=O)[O-]

compound no.	26	27	28	29	30
CAL PDZ FP-2	-3.1	-3.7	-1.2	-1.3	-1.2
CDK5 inh	-12.8	1.0	-1.1	1.4	2.4
UUG fidelity	-9.1	-11.2	nt	nt	nt
dFosB activator	20.2*	8.0	-4.5	5.3	-1.6
CAL PDZ FP-1	-0.2	7.6	53.5*	-2.9	94.6*
Dyrk1A ADPGlo	7.0	15.2	4.2	1.2	-4.1

(31) Cc1nn(C)c(C(=O)Sc2ccccc2)c1[N+](=O)[O-]
(32) CN1C(=O)c2cc(NC(=O)NC3CCCC3)ccc2OC[C@H]2O[C@@H](CC(=O)O)CC[C@@H]21
(33) C[C@H](CO)N1C[C@H](C)[C@H](CN(C)Cc2ccccc2F)Oc2cc(C3=CCCCC3)ccc2S1(=O)=O
(34) Cc1nnc2sc(SCC(=O)Nc3cccc(Cl)c3)nn2c1=O
(35) CCCN(C)C[C@@H]1Oc2ncc(C#CC3CC3)cc2C(=O)N([C@@H](C)CO)C[C@@H]1C

compound no.	31	32	33	34	35
CAL PDZ FP-2	0.8	nt	nt	12.3	nt
CDK5 inh	-0.2	nt	nt	-1.4	nt
UUG fidelity	-21.0	-1.3	3.0	-13.2	1.6
dFosB activator	1.7	nt	nt	-3.3	nt
CAL PDZ FP-1	-0.4	nt	nt	99.5*	nt
Dyrk1A ADPGlo	5.9	nt	nt	-0.1	nt

(36) N=c1n(Cc2ccccc2)c2ccccc2n1CC(O)COc1ccc(Cl)cc1Cl (configuration not stated)
(37) COc1ccc(CCN2CC(C(=O)NCC3(O)CCCCC3)CCC2=O)cc1 (configuration not stated)
(38) CN(C)C1(CNC(=O)C2CCC(=O)N(CCc3ccc(Cl)cc3)C2)CCCCC1 (configuration not stated)
(39) COc1ccc(-n2nnc3c(SCC(=O)N4CCCc5ccccc54)ncnc32)cc1
(40) CCOc1ccc(-n2nnc3c(=O)n(CC(=O)N4CCCc5ccccc54)cnc32)cc1

compound no.	36	37	38	39	40
CAL PDZ FP-2	nt	-1.5	87.9*	14.6	-1.6
CDK5 inh	4.4	1.2	-0.7	0.5	0.0
UUG fidelity	nt	-8.7	6.3	-19.1	-12.7
dFosB activator	30.0*	-5.7	-4.0	1.3	-25.5
CAL PDZ FP-1	-4.4	-3.2	-4.9	60.1*	-2.0
Dyrk1A ADPGlo	0.5	19.8	1.9	-4.2	-2.8

(41) C[C@@H]1CN([C@@H](C)CO)C(=O)c2cc(NC(=O)CCCCCC(=O)Nc3ccccc3N)ccc2O[C@@H]1CN(C)C(=O)Nc1ccc(C(F)(F)F)cc1
(42) COc1ccc2nc3cc(Cl)ccc3c(Nc3cc(C(C)C)c(O)cc3C)c2c1
(43) CCCNC(=O)N(C)C[C@H]1N[C@@H](CO)[C@@H]1c1ccc(C2=CCCCC2)cc1
(44) CCCCC(NS(=O)(=O)c1ccc(OC)cc1)C(=O)O (configuration not stated)
(45) Cc1ccc(S(=O)(=O)N(C)C[C@H]2Oc3ccc(NC(=O)Nc4ccc(F)cc4)cc3C(=O)N([C@H](C)CO)C[C@H]2C)cc1
(46) Cc1cnc(NC(=O)NCC2CCCC(CNC(=O)Nc3ncc(C)s3)C2)s1 (configuration not stated)
(47) Cc1ccc(C(=O)Nc2ncc(C)s2)o1

compound no.	41	42	43	44	45	46	47
CAL PDZ FP-2	nt	1.9	nt	3.3	nt	-1.0	-3.0
CDK5 inh	nt	0.9	nt	-0.8	nt	3.1	-1.6
UUG fidelity	-1.2	-4.7	-4.5	-10.6	-6.8	-9.1	-31.8
dFosB activator	nt	89.1*	nt	5.2	nt	-11.3	-6.0
CAL PDZ FP-1	nt	-2.4	nt	49.2*	nt	67.4*	nt
Dyrk1A ADPGlo	nt	-3.9	nt	4.3	nt	8.1	6.4
